Source: patent US20030170653A1, “Biological method for the production of tuliposide A and its intermediates” (priority 2001, published 2003)

Experiment: Aminotransferase activity of soluble protein extracts (LC/MS of FMOC amino acids)
Type: biochemical
Conditions: 10 mM substrate; pyruvate (plant enzymes) or α-ketoglutarate (gabT) as acceptor; 37° C., 90 min
Experimental: Freshly transformed E. coli colonies containing pTrcHis2-TOPO with aminotransferase inserts or pTrcHis2/lacZ were inoculated into 30 mL of LB liquid media containing ampicillin (100 μg/μL) and grown overnight at 37° C. with shaking at 250 rpm. The next morning, the cultures were induced with IPTG at a final concentration of 0.8 mM. The cultures were grown at 37° C. with shaking at 250 rpm for 3 hours. The cultures were then centrifuged at 8,000× g for 10 min and the supernatant was decanted; the resulting pellet was resuspended in 2 mL of buffer (100 mM Phosphate, 1 mM DTT, pH 7.5). Cells were broken by passage through a french press and the resulting extract was centrifuged at 13,000× g for 12 min at 4° C. […]
Soluble protein extracts were assayed for aminotransferase activity. […] The amino acid products of the enzymatic reaction were analyzed as their FMOC (9-fluorenylmethoxycarbonyl) derivatives using an LC/MS system. […] This mixture was diluted 2 fold and then analyzed using an LC/MS coupled system. […] In the LC/MS analysis of the assays using gabT, glutamate eluted at 13 min in a solvent of 17.5% acetonitrile and was detected as the FMOC-sodium ion (m/z 392). […] Alanine eluted at 24 min in a solvent of 35% acetonitrile and was detected as the FMOC-sodium ion (m/z 334).

| Molecule | transamination of α-methylene-γ-aminobutyrate |
| --- | --- |
| e20: γ-aminobutyrate aminotransferase homolog from tulip pistil (SEQ ID NO: 8) (protein, tulip pistil) MMPLACSDPSPPPRFRGHAMLAPFTAGWQTADTEPFIITRSEGCYVYDITGKKYLDSLAGLWCTALGGSEPRLIAAATEQLNQLPFYHSFWNRTTKPSLDLATELIAYFTPKKMGKVFFTNSGSEANDSQVKLVWYYNNALGRPNKKKFIARTKSYHGVTLTSASLTGLPALHQKFDLPLPFVLHTDCPHYWRFHLPGETEEEFSTRLANNLEKLILTEGPETIAAFIAEPVMGAGGVIPPPKTYFEKIQAVIKKYDILFIADEVVTAFGRLGTMFGCEKYNIQPDLVTIAKALSSGYLPIGAILVSPEIAEVVHSQSNKLGSFSHGFTYSGHPVACAVALEALKIYKERDIPGHVQTISPRFQDGLRAFSDSSIIGEIRGTGLILATEFTDNKSPNDLFPSEWGVGAIFGAECAKRGLLVRVAGDNIMMSPPLVISPKEVDELVSIYGEALKCTEERVAELKDSEIAVAK | able to transaminate |
| gabT: γ-aminobutyrate aminotransferase from Escherichia coli (SEQ ID NO: 12) (protein, listed as Escherichia coli) MNSNKELMQRRSQAIPRGVGQIHPIFADRAENCRVWDVEGREYLDFAGGIAVLNTGHLHPKVVAAVEAQLKKLSHTCFQVLAYEPYLELCEIMNQKVPGDFAKKTLLVTTGSEAVENAVKIARAATKRSGTIAFSGAYHGRTHYTLALTGKVNPYSAGMGLMPGHVYRALYPCPLHGISEDDAIASIHRIFKNDAAPEDIAAIVIEPVQGEGGFYASSPAFMQRLRALCDEHGIMLIADEVQSGAGRTGTLFAMEQMGVAPDLTTFAKSIAGGFPLAGVTGRAEVMDAVAPGGLGGTYAGNPIACVAALEVLKVFEQENLLQKANDLGQKLKDGLLAIAEKHPEIGDVRGLGAMIAIELFEDGDHNKPDAKLTAEIVARARDKGLILLSCGPYYNVLRILVPLTIEDAQIRQGLEIISQCFDEAKQ | able to transaminate |
